Consider two molecules from patent US20160108115 (published 2016).

The Kd is the constant that tells how readily two partners part at equilibrium. A low value points to a tighter complex.

What all share (experiment): SPR
(Surface plasmon resonance follows binding to a sensor surface in real time, without labels.)

In experiment [1] the target is T1, human C5 (human, UniProt P01031).
In experiment [2] the target is T1, human C5. This is another data set of the same source.
The target of experiment [3] is T1, human C5. The source holds these as a separate data set.
Experiment [4] has as its target T1, human C5. This is another data set of the same source.
Experiment [5] concerns the target T1, human C5. This is another data set of the same source.
The target of experiment [6] is T1, human C5. This is another data set of the same source.
The target of experiment [7] is T1, human C5. This is another data set of the same source.
The target of experiment [8] is T1, human C5. The source holds these as a separate data set.
Experiment [9] concerns the target T1, human C5. This is another data set of the same source.

Where two headings read alike, the source gives them in different places.

B1: BNJ441 (antibody, V domains shown)
VH: QVQLVQSGAEVKKPGASVKVSCKASGHIFSNYWIQWVRQAPGQGLEWMGEILPGSGHTEYTENFKDRVTMTRDTSTSTVYMELSSLRSEDTAVYYCARYFFGSSPNWYFDVWGQGTLVTVSS
VL: DIQMTQSPSSLSASVGDRVTITCGASENIYGALNWYQQKPGKAPKLLIYGATNLADGVPSRFSGSGSGTDFTLTISSLQPEDFATYYCQNVLNTPLTFGQGTKVEIK
With B1, the Kd with human C5 [1] was determined as 0.461 nM; with human C5 [2], 2.19 nM; with human C5 [3], 0.421 nM; with human C5 [4], 0.213 nM; with human C5 [5] it was 21.8 nM; in the experiment with human C5 [6] it was 0.911 nM. Besides, in the experiment with human C5 [7], binding was put at a Kd of 0.491 nM.

B2: EHG303 (antibody, V domains shown)
VH: QVQLVQSGAEVKKPGASVKVSCKASGHIFSNYWIQWVRQAPGQGLEWMGEILPGSGHTEYTENFKDRVTMTRDTSTSTVYMELSSLRSEDTAVYYCARYFFGSSPNWYFDVWGQGTLVTVSS
VL: DIQMTQSPSSLSASVGDRVTITCGASENIYGALNWYQQKPGKAPKLLIYGATNLADGVPSRFSGSGSGTDFTLTISSLQPEDFATYYCQNVLNTPLTFGQGTKVEIK
With B2, the Kd is 1190 nM in the experiment with human C5 [8] and 0.146 nM in the experiment with human C5 [9].
